# Measured affinities in a library of Ab-14 light chain variants

Target: peptide PDVDLGDISGINAS, taken from heptad repeat 2 (HR2) of SARS-CoV-2 spike.

The variants keep the heavy chain, the linker and the frameworks of Ab-14 (scFv order VH, a 15-residue (Gly4Ser)3 linker, VL).
VH: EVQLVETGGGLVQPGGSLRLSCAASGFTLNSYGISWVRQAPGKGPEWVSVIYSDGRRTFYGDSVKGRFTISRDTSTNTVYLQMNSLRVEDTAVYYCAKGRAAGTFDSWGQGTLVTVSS
VL: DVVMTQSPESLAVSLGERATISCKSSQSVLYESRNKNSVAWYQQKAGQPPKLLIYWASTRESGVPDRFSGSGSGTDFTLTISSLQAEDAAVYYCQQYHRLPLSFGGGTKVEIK

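The parent was found by panning a naive human phage display library on the peptide. The variants were designed computationally from a first round of random CDR variants and then made and measured. Several design methods are mixed in this list. AlphaSeq pools MATa yeast showing the antibodies with MATalpha yeast showing the peptide. Binding brings cells together so that they mate, and sequencing counts the barcode pairs among the diploids. Read counts were normalised to the haploid input and turned into Kd by a linear fit to BCL2-family pairs of known affinity, for each replicate. The assay was run in six technical replicates.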

Variants are written as CDR1, CDR2 and CDR3 of the light chain (limits as in the source). Parent: KSSQSVLYESRNKNSVA, WASTRES, QQYHRLPLS. This list holds designs with more than six substitutions. Each Kd is an estimate from the mating assay, the geometric mean of the replicates in which the pair was seen; lower is stronger. A pair that was not seen in any replicate is written "no signal"; this usually means weak binding, but a binder can also be missed. Entries are sorted by rising average, undetected variants last. Nonspecific signal, from three strains lacking the peptide, appeared in 4% of pairings of all light chain designs, centred on 430 nM (5% of these signals below 38 nM); values are not corrected for it.

Variant NSSGPMMFESRNKNSVA / HASTREN / QQYERLPLS showed 540 pM (6 of 6 replicates). With KLSWSVGYESRNVNNVA / NASTREL / QQYHRLPLS the result was 600 pM (6 of 6 replicates). For QINHQGLSANLNSKNVA / AKNLRVD / QQYNRLPLS, the assay gave 620 pM (6 of 6 replicates). For MISGSVMSESRLKNSVA / QTTTREV / QQYDRLPLS, the assay gave 810 pM (6 of 6 replicates). For ALSQSVDLESVHKNSIA / DLMTRES / QQYHRLPLS, the assay gave 1.0 nM (6 of 6 replicates).

With MMSSLMGYESRHINNVA / QTSTRED / QQYDRLPLM the result was 1.3 nM (6 of 6 replicates). Variant TLGDVTRMESNKKASIA / DMSNRAD / QQYHRLPLS showed 1.5 nM (6 of 6 replicates). Variant SIYDATLMESRNKNPIA / DVSTRPS / QQYHRLPLS showed 1.7 nM (6 of 6 replicates). With KIGMTLNQLMHKKNNVA / DLVTREN / QQYYRLPLS the result was 1.8 nM (6 of 6 replicates). Variant QLEVFPLQGMSTTQSIA / DASHRTP / QQYSRLPLV showed 1.9 nM (6 of 6 replicates).

Variant RLNVFQNVSTQGNNSIA / GAEQKVH / QQYMRLPLY gave 2.7 nM (6 of 6 replicates). Variant KLYALTMLESHDKNSIA / DLSTRGN / QQYHRLPLS gave 3.2 nM (6 of 6 replicates). Variant NLGFVDDNDNRGMMSVA / DVNTVGE / QQYNRLPLA showed 3.4 nM (6 of 6 replicates). Variant KISMLMENSHVNRNSVA / ELVTRMK / QQYNRLPLS showed 3.8 nM (6 of 6 replicates). With KFGQMVLTGSYVKNSVA / QSSTREN / QQYDRLPLS the result was 3.8 nM (6 of 6 replicates).

With SMFEKEYEELQPENNIA / DTTARMV / QQYFRLPLL the result was 4.3 nM (6 of 6 replicates). Variant SLMQVGGYESNQKNSIA / DLRTRES / QQYHRLPLS showed 4.9 nM (6 of 6 replicates). For KISMTTEMELKNRNSVA / ELVTREN / QQYNRLPLS, the assay gave 5.1 nM (6 of 6 replicates). With KFNISKEGVTRTGKSIA / GAQTIDE / QQYARLPLA the result was 5.2 nM (6 of 6 replicates). For MIHESMGLMSHKHSSIA / DNSTRED / QQYDRLPLS, the assay gave 6.1 nM (6 of 6 replicates).

Variant KLSQQDEYESRNKNSVA / HASCRWQ / QQYHRLPLS showed 8.6 nM (6 of 6 replicates). Variant KLGYNTGTESFRKDNIA / DNDLREY / QQYDRLPLS gave 12 nM (6 of 6 replicates). Variant ILSQSVLMGSHLKNSVA / QASTRFS / QQYHRLPLA gave 13 nM (6 of 6 replicates). For MMSQMFEGLSTSKNPVA / QVSTRLE / QQYHRLPLS, the assay gave 17 nM (6 of 6 replicates). For LISSVWDYGSRNYNSVA / QTSTREE / QQYDRLPLE, the assay gave 19 nM (2 of 6 replicates).

Variant TISQITSLFSQTINNVA / EVSTREP / QQYDRLPLS showed 26 nM (6 of 6 replicates). Variant HIDSQEVGTIGAESNVA / ETNTLLY / QQYSHLPLS showed 29 nM (6 of 6 replicates). Variant HMTIDIEMEAKHQNSVA / EASHTEY / QQYSELPLT gave 30 nM (6 of 6 replicates). Variant MISDMGLHDSRIQQSVA / NNSTREA / QQYDRLPLS gave 51 nM (5 of 6 replicates). Variant RFEDHISEKEGRHNSIA / EEHMRLD / QYYGRLPLA showed 54 nM (4 of 6 replicates).

Variant QLYEMNYELSGKTHSVA / DNSTRGE / QQYFRLPLD showed 60 nM (6 of 6 replicates). Variant MISQLYNMGSFAINSVA / QASERNL / QQYDRLPLI showed 92 nM (6 of 6 replicates). For IIDQLMYWGNKHVNSIA / QASQRLN / QQYHHLPLT, the assay gave 99 nM (6 of 6 replicates). Variant HMSMLTLSGMYQRNSVA / QMTTREN / QQYDRLPLS showed 130 nM (5 of 6 replicates). Variant KLQGFSNNMNDIQNSIA / DESMLHT / QHYWRLPLT showed 300 nM (4 of 6 replicates).

With SLSHDQGDETNHWENVA / QDAYRAN / QDYSRLPLS the result was 470 nM (5 of 6 replicates). For KLAATSLYESGAANSVA / QNSTRES / QQYHRLPLS, the assay gave 890 nM (3 of 6 replicates). Variant FMDFQMLEWQYDANNIA / GATLSIE / QQYGRLPLT gave no signal (0 of 6 replicates). For SLAESVHMESRNKNSVA / DNTTRES / QHYDRLPLS, the assay gave no signal (0 of 6 replicates).

The 4 strongest on average among those seen in every replicate, once more:

For NSSGPMMFESRNKNSVA / HASTREN / QQYERLPLS, the assay gave 540 pM (6 of 6 replicates).
For KLSWSVGYESRNVNNVA / NASTREL / QQYHRLPLS, the assay gave 600 pM (6 of 6 replicates).
For QINHQGLSANLNSKNVA / AKNLRVD / QQYNRLPLS, the assay gave 620 pM (6 of 6 replicates).
For MISGSVMSESRLKNSVA / QTTTREV / QQYDRLPLS, the assay gave 810 pM (6 of 6 replicates).

A sequence measured in both rounds can read differently, since the two assays cover different ranges. In the paper, a design with two or fewer of six values counts as a poor binder. Of ten entries with the parent sequence, four were seen in most replicates (averages 2.2 nM to 240 nM), three in one and three in none, so single entries are noisy.

Reference: Li et al. 2023, doi:10.1038/s41467-023-39022-2. File: FLAb, binding data.